The test concerns the target IKZF2 (Homo sapiens, UniProt Q96SW2+Q9UKS7). In words: HiBit-IKZF2 assay (HiBiT-Helios degradation in MOLT4 cells). The settings on record: for DC50: concentration at which 50% of HiBiT-Helios degradation was achieved; for Dmax: extent of degradation from highest to lowest concentration, 10 μM to 0.00026 μM. A general note: The HiBiT peptide binds its large partner to form an active luciferase.

Sequences of proteins named here, by UniProt entry; tags and fusion partners are left off.
UniProt Q96SW2, whole entry: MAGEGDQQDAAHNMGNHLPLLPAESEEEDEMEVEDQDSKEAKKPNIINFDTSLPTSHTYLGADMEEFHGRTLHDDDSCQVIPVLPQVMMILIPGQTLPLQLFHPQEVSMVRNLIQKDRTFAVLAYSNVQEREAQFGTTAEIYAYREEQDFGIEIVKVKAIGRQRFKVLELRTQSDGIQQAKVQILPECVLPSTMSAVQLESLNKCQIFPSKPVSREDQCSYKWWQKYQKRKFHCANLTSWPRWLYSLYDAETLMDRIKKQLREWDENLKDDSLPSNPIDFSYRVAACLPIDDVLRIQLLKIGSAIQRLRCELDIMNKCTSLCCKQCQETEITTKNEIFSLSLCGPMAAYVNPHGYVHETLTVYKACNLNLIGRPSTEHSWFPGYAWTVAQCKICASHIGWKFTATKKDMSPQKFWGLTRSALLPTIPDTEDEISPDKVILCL
UniProt Q9UKS7, whole entry: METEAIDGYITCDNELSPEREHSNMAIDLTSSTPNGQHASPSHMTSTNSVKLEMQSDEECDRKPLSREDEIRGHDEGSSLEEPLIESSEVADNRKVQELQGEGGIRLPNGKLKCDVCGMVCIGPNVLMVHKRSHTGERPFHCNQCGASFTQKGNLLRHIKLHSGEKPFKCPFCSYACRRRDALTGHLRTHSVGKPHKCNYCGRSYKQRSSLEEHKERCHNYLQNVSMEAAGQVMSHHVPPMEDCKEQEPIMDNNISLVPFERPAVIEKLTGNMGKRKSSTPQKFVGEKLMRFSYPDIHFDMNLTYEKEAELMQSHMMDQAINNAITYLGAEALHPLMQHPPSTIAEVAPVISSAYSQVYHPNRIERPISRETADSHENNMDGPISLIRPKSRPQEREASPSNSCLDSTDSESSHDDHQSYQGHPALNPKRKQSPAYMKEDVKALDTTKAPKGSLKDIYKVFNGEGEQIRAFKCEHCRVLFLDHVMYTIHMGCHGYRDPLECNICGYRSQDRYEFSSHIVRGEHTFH
UniProt Q16531, whole entry partner: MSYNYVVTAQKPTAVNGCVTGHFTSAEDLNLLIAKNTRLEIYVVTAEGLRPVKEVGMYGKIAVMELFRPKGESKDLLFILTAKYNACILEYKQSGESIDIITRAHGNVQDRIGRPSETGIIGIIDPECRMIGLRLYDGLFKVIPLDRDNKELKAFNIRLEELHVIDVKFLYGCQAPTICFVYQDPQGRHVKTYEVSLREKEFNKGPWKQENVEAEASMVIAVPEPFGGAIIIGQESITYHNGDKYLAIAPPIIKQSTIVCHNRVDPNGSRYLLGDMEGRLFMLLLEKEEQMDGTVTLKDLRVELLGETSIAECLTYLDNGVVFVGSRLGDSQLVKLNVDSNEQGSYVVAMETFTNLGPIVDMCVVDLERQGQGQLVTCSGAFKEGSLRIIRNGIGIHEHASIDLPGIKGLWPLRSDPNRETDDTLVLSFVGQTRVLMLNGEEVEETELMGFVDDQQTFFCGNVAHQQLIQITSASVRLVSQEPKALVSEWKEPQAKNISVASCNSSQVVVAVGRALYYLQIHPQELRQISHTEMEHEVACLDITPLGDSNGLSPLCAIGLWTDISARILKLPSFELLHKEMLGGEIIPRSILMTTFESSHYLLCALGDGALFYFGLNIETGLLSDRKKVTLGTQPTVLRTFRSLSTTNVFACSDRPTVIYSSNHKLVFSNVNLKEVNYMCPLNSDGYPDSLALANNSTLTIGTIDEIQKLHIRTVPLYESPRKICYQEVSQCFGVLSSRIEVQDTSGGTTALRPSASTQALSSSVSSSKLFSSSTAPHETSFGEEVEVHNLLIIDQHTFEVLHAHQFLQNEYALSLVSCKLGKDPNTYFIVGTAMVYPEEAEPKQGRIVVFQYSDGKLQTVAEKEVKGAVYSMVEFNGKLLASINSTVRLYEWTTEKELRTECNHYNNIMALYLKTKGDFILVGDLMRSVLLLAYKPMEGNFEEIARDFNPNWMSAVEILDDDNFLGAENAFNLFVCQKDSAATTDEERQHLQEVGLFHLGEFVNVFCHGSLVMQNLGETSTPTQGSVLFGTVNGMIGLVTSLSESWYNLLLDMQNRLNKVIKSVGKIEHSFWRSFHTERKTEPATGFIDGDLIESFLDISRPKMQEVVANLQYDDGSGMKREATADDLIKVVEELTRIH

Structures are written as SMILES.

The term DC50 denotes the midpoint of the concentration-degradation curve. A high value points to a less potent degrader. For the compound `O=C1CCC(N2Cc3cc(C4CCN(Cc5cccc6c5CCCN(c5ccccc5)C6=O)CC4)ccc3C2=O)C(=O)N1` (stereo not drawn), the DC50 was 0.01 to 0.03 µM and the Dmax entry is “++ (“++” is from >50% to <70%)”.

With `O=C1CCC(N2Cc3cc(C4CCN(Cc5cccc(N6CCCC6=O)c5)CC4)ccc3C2=O)C(=O)N1` (stereo not drawn), the 50% degradation concentration (DC50) is 0.01 to 0.03 µM and the Dmax entry is given as “++ (“++” is from >50% to <70%)”.

For `O=C1CCC(N2Cc3cc(C4CCN(Cc5cccc6c5CCN(c5ccccc5)C6=O)CC4)ccc3C2=O)C(=O)N1` (stereo not drawn), the DC50 is 0.01 to 0.03 µM and the Dmax entry was “++ (“++” is from >50% to <70%)”.

For `O=C1CCC(N2Cc3cc(C4CCN(Cc5cccc(N6CC7CC7C6=O)c5)CC4)ccc3C2=O)C(=O)N1` (stereo not drawn), the DC50 is 0.01 to 0.03 µM and the Dmax entry is listed as “++ (“++” is from >50% to <70%)”.

For `O=C1CCC(N2Cc3cc(C4CCN(Cc5cccc6c5CCCN(c5ccccn5)C6=O)CC4)ccc3C2=O)C(=O)N1` (stereo not drawn), the 50% degradation concentration (DC50) is 0.01 to 0.03 µM and the Dmax result is reported as “+ (“+” is from >30% to <50%)”.

Consider `O=C1CCC(N2Cc3cc(C4CCN(Cc5ccc6c(c5)NC(=O)c5ccccc5O6)CC4)ccc3C2=O)C(=O)N1` (stereo not drawn), for which the DC50 was 0.01 to 0.03 µM and the Dmax entry is on record as “++ (“++” is from >50% to <70%)”.

In the case of `O=C1CCC(N2Cc3cc(C4(O)CCN(Cc5ccccc5)CC4)ccc3C2=O)C(=O)N1` (stereo not drawn), the half-maximal degradation concentration (DC50) was less than 0.01 µM and the Dmax entry is reported as “+++ (“+++” is >70%)”.

On to `O=C1CCC(N2Cc3cc(C4CCN(Cc5cccc6c5CCN(c5ccccn5)C6=O)CC4)ccc3C2=O)C(=O)N1` (stereo not drawn), for which the DC50 was 0.01 to 0.03 µM and the Dmax result is given as “++ (“++” is from >50% to <70%)”.

As for `O=C1CCC(N2Cc3cc(C4CCN(Cc5ccc6c(c5)C(=O)N(c5ccccn5)CC6)CC4)ccc3C2=O)C(=O)N1` (stereo not drawn), the DC50 was less than 0.01 µM and the Dmax result is given as “++ (“++” is from >50% to <70%)”.

For the origin of these results see patent US20230002397A1, “SMALL MOLECULE DEGRADERS OF HELIOS AND METODS OF USE” (DANA-FARBER CANCER INSTITUTE, INC., priority 2019, published 2023).
